Measurements published in ChEMBL document CHEMBL4602702, “Red-Emitting Dibenzodiazepinone Derivatives as Fluorescent Dualsteric Probes for the Muscarinic Acetylcholine M2 Receptor” (J Med Chem, 2020).

Sequences of proteins named here, by UniProt entry; tags and fusion partners are left off.
UniProt P08172, whole entry: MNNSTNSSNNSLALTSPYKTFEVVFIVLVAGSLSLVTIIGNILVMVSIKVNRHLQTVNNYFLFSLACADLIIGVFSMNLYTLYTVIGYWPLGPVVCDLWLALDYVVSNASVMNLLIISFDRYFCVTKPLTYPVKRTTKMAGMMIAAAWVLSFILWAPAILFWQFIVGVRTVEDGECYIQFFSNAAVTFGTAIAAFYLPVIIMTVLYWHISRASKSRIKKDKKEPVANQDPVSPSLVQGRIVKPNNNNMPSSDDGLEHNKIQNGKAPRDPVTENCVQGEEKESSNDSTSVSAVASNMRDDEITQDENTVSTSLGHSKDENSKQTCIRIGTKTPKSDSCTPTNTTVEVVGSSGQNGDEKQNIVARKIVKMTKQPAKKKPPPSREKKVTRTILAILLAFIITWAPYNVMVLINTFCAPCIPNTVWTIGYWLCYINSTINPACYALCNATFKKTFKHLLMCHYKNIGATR

Key:
Type in all cases: cell-based
[1] = target: T1, Muscarinic acetylcholine receptor M2 (Homo sapiens, UniProt P08172); experiment: Displacement of 4-(2-((1E,3E)-5-((E)-3,3-Dimethyl-1-(6-oxo-6-((2-(4-(4-(1-(2-oxo-2-(11-oxo-10,11-dihydro-5H-dibenzo[b,e][1,4]diazepin-5-yl)ethyl)piperidin-4-yl)butyl)piperazin-1-yl)ethyl)amino)hexyl)-5-sulfoindolin-2-ylidene)penta-1,3-dien-1-yl)-3,3-dimethyl-3H-indol-1-ium-1-yl)butane-1-sulfonate Bis(hydrotrifluoroacetate) fluorescent tracer from human muscarinic M2 receptor expressed in CHO-K9 cells by FACSCalibur flow cytometry
[2] = target: T1, Muscarinic acetylcholine receptor M2; experiment: Displacement of 4-(2-((1E,3E)-5-((E)-3,3-Dimethyl-1-(6-oxo-6-((2-(4-(4-(1-(2-oxo-2-(11-oxo-10,11-dihydro-5H-dibenzo[b,e][1,4]diazepin-5-yl)ethyl)piperidin-4-yl)butyl)piperazin-1-yl)ethyl)amino)hexyl)indolin-2-ylidene)penta-1,3-dien-1-yl)-3,3-dimethyl-3H-indol-1-ium-1-yl)butane-1-sulfonate Tris(hydrotrifluoroacetate fluorescent tracer from human muscarinic M2 receptor expressed in CHO-K9 cells measured after 60 mins by Hoechst H33342 dye based confocal plate reader assay
[3] = target: T1, Muscarinic acetylcholine receptor M2; experiment: Displacement of 4-(2-((1E,3E)-5-((E)-3,3-Dimethyl-1-(6-oxo-6-((2-(4-(4-(1-(2-oxo-2-(11-oxo-10,11-dihydro-5H-dibenzo[b,e][1,4]diazepin-5-yl)ethyl)piperidin-4-yl)butyl)piperazin-1-yl)ethyl)amino)hexyl)-5-sulfoindolin-2-ylidene)penta-1,3-dien-1-yl)-3,3-dimethyl-3H-indol-1-ium-1-yl)butane-1-sulfonate Bis(hydrotrifluoroacetate) fluorescent tracer from human muscarinic M2 receptor expressed in […] cells measured after 60 mins by Hoechst H33342 dye based confocal plate reader assay
[4] = target: T1, Muscarinic acetylcholine receptor M2; experiment: Displacement of 4-(2-((1E,3E)-5-((E)-3,3-Dimethyl-1-(6-oxo-6-((2-(3-(1-(4-(1-(2-oxo-2-(11-oxo-10,11-dihydro-5H-dibenzo[b,e][1,4]diazepin-5-yl)ethyl)piperidin-4-yl)butyl)-1H-imidazol-4-yl)propanamido)ethyl)-amino)hexyl)-5-sulfoindolin-2-ylidene)penta-1,3-dien-1-yl)-3,3-dimethyl-3H-indol-1-ium-1-yl)butane-1-sulfonateHydrotrifluoroacetate fluorescent tracer from human muscarinic M2 receptor expressed in […] cells measured after 60 mins by Hoechst H33342 dye based confocal plate reader assay
[5] = target: T1, Muscarinic acetylcholine receptor M2; experiment: Displacement of 4-(2-((1E,3E)-5-((E)-1-(6-((3,5-Bis((2-(3-(1-(4-(1-(2-oxo-2-(11-oxo-10,11-dihydro-5H-dibenzo[b,e][1,4]diazepin-5-yl)ethyl)piperidin-4-yl)butyl)-1H-imidazol-4-yl)propanamido)ethyl)carbamoyl)benzyl)amino)-6-oxohexyl)-3,3-dimethyl-5-sulfoindolin-2-ylidene)penta-1,3-dien-1-yl)-3,3-dimethyl-3H-indol-1-ium-1-yl)butane-1-sulfonate Tris(hydrotrifluoroacetate) fluorescent tracer from human muscarinic M2 receptor expressed in […] cells measured after 60 mins by Hoechst H33342 dye based confocal plate reader assay
[6] = target: T1, Muscarinic acetylcholine receptor M2; experiment: Displacement of [3H]-NMS from human muscarinic M2 receptor expressed in CHO-K9 cells measured after 60 mins by Hoechst H33342 dye based confocal plate reader assay

How did the Ki [1] turn out when CCCCCCOc1nsnc1C1=CCCN(C)C1 [XANOMELINE] was run?
The Ki was 214 nM.

What about the Ki [2] of the same compound?
The Ki was 724 nM.

What about the Ki [3] of the same compound?
Its Ki is 380 nM.

And the Ki [4]?
The Ki was 324 nM.

And the Ki [5]?
Its Ki is 275 nM.

And the Ki [6]?
Its Ki is 200 nM.
